Target: T1, Interstitial collagenase (Homo sapiens, UniProt P03956)
T1 sequence (P03956 whole entry): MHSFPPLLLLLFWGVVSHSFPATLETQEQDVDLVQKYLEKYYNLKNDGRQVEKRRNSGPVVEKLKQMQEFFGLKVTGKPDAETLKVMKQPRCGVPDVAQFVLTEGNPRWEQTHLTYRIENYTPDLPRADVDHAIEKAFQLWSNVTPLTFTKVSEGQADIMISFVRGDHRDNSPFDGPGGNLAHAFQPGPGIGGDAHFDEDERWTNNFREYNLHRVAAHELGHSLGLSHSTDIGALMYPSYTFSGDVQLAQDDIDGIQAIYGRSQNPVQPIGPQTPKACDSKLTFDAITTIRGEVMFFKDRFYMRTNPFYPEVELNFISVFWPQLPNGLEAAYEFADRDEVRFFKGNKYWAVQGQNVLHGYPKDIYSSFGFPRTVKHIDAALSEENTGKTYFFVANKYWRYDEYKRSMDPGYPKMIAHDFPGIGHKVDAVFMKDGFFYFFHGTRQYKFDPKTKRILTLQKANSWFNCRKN
Experiment: Inhibition of Matrix metalloprotease-1

COc1ccc(S(=O)(=O)N(Cc2cccnc2)[C@@H](C(=O)NO)C(C)C)cc1 [CGS-27023A]
IC50: 49.5 nM

Reference: ChEMBL document CHEMBL1131091, “Discovery of potent, achiral matrix metalloproteinase inhibitors” (J Med Chem, 1998)
